# Test results: PubChem BioAssay AID2097 (Broad Institute, 2009)
# Sequences of proteins named here, by UniProt entry; tags and fusion partners are left off.
# UniProt P49841, whole entry: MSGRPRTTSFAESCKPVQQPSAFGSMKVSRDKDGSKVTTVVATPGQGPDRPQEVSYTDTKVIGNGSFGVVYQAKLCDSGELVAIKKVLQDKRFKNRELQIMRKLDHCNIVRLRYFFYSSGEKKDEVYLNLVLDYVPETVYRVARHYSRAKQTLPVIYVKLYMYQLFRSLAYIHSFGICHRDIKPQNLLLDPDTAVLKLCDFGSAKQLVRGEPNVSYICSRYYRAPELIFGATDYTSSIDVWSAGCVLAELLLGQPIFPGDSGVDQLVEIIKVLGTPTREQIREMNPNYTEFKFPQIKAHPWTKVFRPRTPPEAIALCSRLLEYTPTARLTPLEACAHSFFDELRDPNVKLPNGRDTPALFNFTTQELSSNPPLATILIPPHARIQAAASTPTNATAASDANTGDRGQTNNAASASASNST
# This is a selection; strong and weak results do not stand in their true shares. Some results for these compounds are left out of this collection, so the calls shown say nothing about other tests. Calls of active or inactive are those of the source.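 The calls were made as follows: active = more than half of replicate wells score below -50%, meaning over 50% inhibition versus plate controls; inconclusive = some replicates but at most half score below -50%; inactive = no replicate scores below -50%.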
# Target: Glycogen synthase kinase-3 beta (Homo sapiens) (UniProt P49841)
# Test: blockers of GSK3B enzyme activity – biochemical, cell-free homogeneous, HTS, primary screen (AID 2097);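 also: 0% = median DMSO wells and -100% = median GW8510 positive control wells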
# Settings: GST-GSK3beta kinase, ADP-Glo luminescence, 60 min; at 10 µM; hits give low values
row,SMILES,activity score (negative = inhibition)
1,O=C(OC1CN2CCC1CC2)C(CO)(c1ccccc1)c1ccccc1 (centres undefined),inactive: -0.445%
2,CN(C)c1cccc(C(=O)NCC2(N(C)C)CCCCC2)c1,inactive: -0.512%
3,CC(C)Oc1ccc(C(=O)NCC2(N(C)C)CCCCC2)cc1,inactive: -2.56%
4,COc1ccc(Br)c(C(=O)NCC2(N3CCCCC3)CCCCC2)c1,inactive: -0.968%
5,COc1cc(C(=O)NCC2(N(C)C)CCCCC2)c([N+](=O)[O-])cc1OC,inactive: 1.5%
6,CN(C)C1(CNC(=O)c2ccc(Br)cc2)CCCCC1,inactive: 2.31%
7,O=C(NCC1(N2CCCCC2)CCCCC1)c1cccc(Cl)c1,inactive: 3.73%
8,COc1ccc(Cl)cc1C(=O)NCC1(N(C)C)CCCCC1,inactive: 4.22%
9,COc1cccc(C(=O)NCC2(N3CCCCC3)CCCCC2)c1,inactive: 1.82%
10,CN(C)c1ccc(C(=O)NCC2(N(C)C)CCCCC2)cc1,inactive: 2.52%
11,CN(C)C1CCCC1OC(=O)C(O)(c1ccccc1)c1ccccc1 (centres undefined),inactive: 1.03%
12,Cc1ccccc1C(=O)NCC1(N2CCCCC2)CCCCC1,inactive: 0.468%
13,O=C(NCC1(N2CCCCC2)CCCCC1)c1cccc(Br)c1,inactive: -0.891%
14,CCN1CCCC(OC(=O)C2(O)c3ccccc3C=Cc3ccccc32)C1 (centres undefined),inactive: 2.19%
15,Cc1cc(C(=O)NCC2(N3CCCCC3)CCCCC2)ccc1[N+](=O)[O-],inactive: -3.04%
16,COc1ccc(C(=O)NCC2(N(C)C)CCCCC2)cc1,inactive: 0.0603%
17,O=C(NCC1(N2CCCCC2)CCCCC1)c1cc(F)c(F)cc1Cl,inactive: 2.11%
18,C=CCN1CCN(CCOC(=O)C(O)(c2ccccc2)c2ccccc2)CC1,inactive: -1.4%
19,CN1[C@@H]2CC[C@H]1CC(OC(=O)C(O)(c1ccccc1)c1ccccc1)C2 (some centres undefined),inactive: -0.686%
20,O=C(NCC1(N2CCCCC2)CCCCC1)c1cc([N+](=O)[O-])ccc1Cl,inactive: 3.31%
21,Cc1ccc(C(=O)NCC2(N3CCCCC3)CCCCC2)cc1,inactive: -3.27%
22,CC(C)N1C(=O)CC2(CCN(CCOC(=O)C(O)(c3ccccc3)c3ccccc3)CC2)C1=O,inactive: 1.05%
23,COc1cc(SC)ccc1C(=O)NCC1(N(C)C)CCCCC1,inactive: -1.99%
24,CCN(CC)CC(C)C(C)OC(=O)C(O)(c1ccccc1)c1ccccc1 (centres undefined),inactive: 0.0095%
